Consider one substance from patent EP4847524A2, “FATTY ACID CONJUGATED CYCLIC PEPTIDES” (dated 2026).

Sequences of proteins named here, by UniProt entry; tags and fusion partners are left off.
UniProt Q13324, whole entry: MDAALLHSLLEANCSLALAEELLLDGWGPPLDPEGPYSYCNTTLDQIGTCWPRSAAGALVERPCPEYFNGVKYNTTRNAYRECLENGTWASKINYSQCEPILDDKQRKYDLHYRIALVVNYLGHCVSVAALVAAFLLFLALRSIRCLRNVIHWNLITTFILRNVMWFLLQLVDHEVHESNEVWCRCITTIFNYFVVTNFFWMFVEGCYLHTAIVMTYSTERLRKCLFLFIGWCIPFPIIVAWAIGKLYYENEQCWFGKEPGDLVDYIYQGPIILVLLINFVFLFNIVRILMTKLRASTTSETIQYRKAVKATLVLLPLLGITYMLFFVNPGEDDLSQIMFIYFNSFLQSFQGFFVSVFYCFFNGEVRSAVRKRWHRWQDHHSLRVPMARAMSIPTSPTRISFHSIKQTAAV

Read-outs that look alike come from different tables or passages of the source.

The target of one series is hCRF-R2 (Homo sapiens, UniProt Q13324). The series is described as follows: cAMP assay (HitHunter), antagonist IC50 in CHO-K1 hCRF-R2 cells, with or without BSA. Here is the method: Human CHO-KI CRF-R1 (hCRF-R1; Catalog # 95-0047C2) and human CHO-K1 CRF2 (hCRF-R2; Catalog # 95-0048C2) cell lines were purchased from Eurofins.
CHO-K1 Complete Media: DMEM Version (complete medium):Dulbecco's Minimal Essential Media with High Glucose, 4.5% (DMEM-HG), 10% [vol] U.S. Sourced, Certified Fetal Bovine Serum (FBS), and 1X [standard mammalian cell culture concentration] of the following: L-Glutamine, Non-Essential Amino Acids, Hepes Buffer (10 mM final concentration) and a standard antibiotic/antimycotic mix (penicillin, streptomycin, amphotericin B (Gibbco Cat # 15240062).
CHO-K1 Complete Media - HF12 Version is the same as the CHO-K1 Complete Media, DMEM Version (complete medium), except that Ham's F-12 was used as the base media. Cell Plating 2 Reagent (CPR2) - Eurofins DiscoverX Assay Complete Cell Plating 2 Reagent (Cat# 93-0563R2A). Lipofecamine LTX (Invitrogen™ Cat# 15338100). FuGENE 6 (Promega Cat# E2691). Bovine Albumin Fraction V, Fatty Acid Free: MP Biomedicals, Cat. 152401, Lot. S8210.
On Day 0, cryovial(s) containing the frozen cells (approx. 1.0E+6 cells/vial) stored in liquid nitrogen were removed and thawed in a 37°C water bath for 60 seconds and then diluted into fresh CHO-K1 Complete Media that was pre-warmed to 37°C. […]
Eurofins Assay Ready (division arrested) versions of the above hCRF-R1 and hCRF-R2 (hCRF-R1 and hCRF-R2 eXpress cell/assay kits) cells were removed from liquid nitrogen storage and thawed in a 37°C water bath for 30 seconds and then diluted into fresh Cell Plating 2 Reagent that was pre-warmed to 37°C. […]
cAMP was determined utilizing a DiscoverX HitHunter assay Enzyme Fragment Complementation (EF) technology purchased from Eurofins as described in the manufacturing instructions with some adjustments. IC50's were calculated from antagonist dose response curves utilizing interpolated cAMP levels and/or relative light unit (RLU) data. In addition, eXpress assay ready cAMP kits were also utilized with hCRF-R1 and hCRF-R2 division arrested cells according to the manufacturing instructions. […]
Background: Cyclic AMP is a second messenger, typically raised through Gs and lowered through Gi signalling.

The nature of series [1]: Sample preparation and solubility (visual observation, RP-HPLC soluble content). How it is done:
Preliminary screening methods for the evaluation of multiple fatty acid peptide analogs included a two-stage approach. First, formulations were prepared at target concentrations of approximately 10, 20, 40 or 50 mg/mL in 150 mM phosphate, pH 7.5. These formulations were titrated using NaOH, as needed, to the target pH 7.5 and were evaluated (visual assessment only). For visibly insoluble formulations, an additional buffer was added to dissolve the peptide. Once dissolved, all formulations were filtered through a 0.2 µm PVDF filter membrane and analyzed by RP-HPLC for soluble content. Formulations were incubated at 4°C, room temperature, and 37°C. At day 0 and 7 the formulations were analyzed by visual observation for solubility, size exclusion chromatography (SEC) for aggregation, & RP-HPLC for chemical stability studies.

Broadly, the IC50 is the concentration that inhibits the measured activity by half. As usually defined, the solubility is the dissolved amount per volume that the medium holds. Read a high solubility as a readily soluble substance. Turning to “Ac-Asp-Leu-Thr-D-Phe-His-Leu-Leu-Arg-Glu-Val-Leu-Glu-Nle-K*-Arg-Glu-Glu-Gln-cVal-Ala-Gln-E#-Ala-Glu-K#-Asn-Arg-Lys-Leu-Nle-Glu-cVal-Ala-CONH2”, the IC50 on hCRF-R2 (read-out: CRFR2 (IC50 nM) BSA (0.1%), BSA (0.1%)) was 89 nM; at hCRF-R2 (read-out: CRFR2 (IC50 nM) No Albumin, No Albumin), 3.1 nM; at hCRF-R2 (read-out: CRFR2 IC50 in BSA, assay buffer containing 0.1% BSA, agonist hUCN1 1 nM) it was 89 nM. Besides, in series [1] (150 mM phosphate pH 7.4), the “Solubility 150 mM phosphate pH 7.4 (mg/mL)” value is ≥45 mg/mL. Moreover, in series [1] (in either 10mM phosphate at pH 7 or 10mM TRIS at pH8), the solubility was > 100 mg/mL. Besides, the “solubility (Table 15)” value in series [1] (preliminary screening formulations, 150 mM phosphate, pH 7.5) is reported as ≥ 45 mg/mL.
